{
  "sequences": {"note": "Amino acid sequences for entries named in this document (tags omitted).", "UniProt Q16548, whole entry": "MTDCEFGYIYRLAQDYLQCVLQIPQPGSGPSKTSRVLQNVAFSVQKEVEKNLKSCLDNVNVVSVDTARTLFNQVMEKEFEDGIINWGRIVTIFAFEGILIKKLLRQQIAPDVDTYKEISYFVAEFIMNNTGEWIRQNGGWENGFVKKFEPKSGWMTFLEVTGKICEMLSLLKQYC"},
  "source": "PubChem BioAssay AID1008",
  "about": "(NMMLSC, 2008)",
  "note": "The list shows a part of the results, in another mix than the full data. Activity calls are given as the source filed them. Rule as the data show it: active = inhibition above about 40%.",
  "data": [
    {"target": "Bcl-2-related protein A1 (Homo sapiens) (UniProt Q16548)", "test": "Bfl-1/Bim complex disruptors – biochemical, multiplexed, bead-based flow cytometry, primary screen (AID 1008);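 also: 0% = wells without compound plus tracer and 100% = blocker peptide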", "conditions": "Bim-Bfl-1 binding inhibition, at 10 µM, stronger effect = higher value", "values": [
      {"smiles": "CC(C)c1ccc(NC2CCN(C(=O)OC(C)(C)C)CC2)cc1", "inhibition": "inactive: -2%"},
      {"smiles": "CN(C)c1cccc(C(=O)NCC2(N3CCCCC3)CCCCC2)c1", "inhibition": "inactive: 6%"},
      {"smiles": "COc1ccc(CN(CCCl)CCCl)cc1Cl", "inhibition": "inactive: -6%"},
      {"smiles": "O=C(NCC1(N2CCOCC2)CCCCC1)c1cc(=O)[nH]c2ccccc12", "inhibition": "inactive: -7%"},
      {"smiles": "CN1CCN(CCOC(=O)C(O)(c2ccccc2)c2ccccc2)CC1", "inhibition": "inactive: -3%"},
      {"smiles": "COc1ccc(NC2CCN(C(=O)OC(C)(C)C)CC2)cc1", "inhibition": "inactive: 1%"},
      {"smiles": "N#CC1(Nc2ccccc2)CCN(CCc2ccccc2)CC1", "inhibition": "inactive: -2%"},
      {"smiles": "O=C(NCC1(N2CCCCC2)CCCCC1)c1cccc([N+](=O)[O-])c1", "inhibition": "inactive: -1%"},
      {"smiles": "COc1ccc(NC2CCN(CCc3ccccc3)CC2)c(OC)c1", "inhibition": "inactive: -15%"},
      {"smiles": "O=C(NCC1(N2CCOCC2)CCCCC1)c1cc2ccccc2o1", "inhibition": "inactive: 12%"},
      {"smiles": "O=C(OC1CN2CCC1CC2)C1c2ccccc2Oc2ccccc21", "note": "(stereo not given)", "inhibition": "inactive: -3%"},
      {"smiles": "CCOC(=O)N1CCC(Nc2ccc(OC)cc2)CC1", "inhibition": "inactive: -4%"},
      {"smiles": "COc1ccc(C(=O)NCC2(N3CCCCC3)CCCCC2)c(OC)c1OC", "inhibition": "inactive: -3%"},
      {"smiles": "COc1cc(OC)cc(C(=O)NCC2(N3CCOCC3)CCCCC2)c1", "inhibition": "inactive: -3%"},
      {"smiles": "CCC(CO)(C(=O)OC1CN2CCC1CC2)c1ccccc1", "note": "(stereo not given)", "inhibition": "inactive: -9%"},
      {"smiles": "CCOc1ncccc1C(=O)NCC1(N2CCOCC2)CCCCC1", "inhibition": "inactive: 0%"},
      {"smiles": "CC(C)(C)OC(=O)N1CCC(Nc2ccccc2)CC1", "inhibition": "inactive: -1%"},
      {"smiles": "CCN1CCC(Nc2cccc(F)c2)CC1", "inhibition": "inactive: -2%"},
      {"smiles": "CN(C)c1ccc(C(=O)NCC2(N3CCCCC3)CCCCC2)cc1", "inhibition": "inactive: -1%"},
      {"smiles": "Fc1ccccc1NC1CCN(Cc2ccccc2)CC1", "inhibition": "inactive: 0%"},
      {"smiles": "c1ccc(CN2CCC(Nc3ccccc3)CC2)cc1", "inhibition": "inactive: -12%"},
      {"smiles": "N#Cc1ccc(C(=O)NCC2(N3CCCCC3)CCCCC2)cc1", "inhibition": "inactive: -4%"},
      {"smiles": "N/C(=N\\O)c1c(N)no[n+]1[O-]", "inhibition": "inactive: -3%"},
      {"smiles": "O=C(OC1CN2CCC1CC2)C1c2ccccc2C=Cc2ccccc21", "note": "(stereo not given)", "inhibition": "inactive: -3%"},
      {"smiles": "COc1ccc(C(=O)NCC2(N3CCOCC3)CCCCC2)cc1OC", "inhibition": "inactive: -3%"}
    ]}
  ]
}
